Measurements from US20230218577A1, “USE OF HEAT SHOCK PROTEIN INHIBITORS FOR THE TREATMENT OF NEURODEVELOPMENTAL DISORDERS” (The Children's Medical Center Corporation, priority 2020, published 2023).
Read-outs that look alike come from different tables or passages of the source.

Test system: mTORC1 activity (pS6) in Tsc2-sh hippocampal neurons
Experiment: mTORC1 high-content screen (mTORC1^HCA) with the Biomol collection library
[1] = Z-score of percent GFP+pS6+ neurons in compound-treated Tsc2-knockdown wells, DIV20, Biomol library, replica 1
[2] = Z-score of percent GFP+pS6+ neurons in compound-treated Tsc2-knockdown wells, DIV20, Biomol library, replica 2
[3] = Z-score of percent GFP+pS6+ neurons in compound-treated Tsc2-knockdown wells, DIV20, Biomol library screen, replica 1
[4] = Z-score of percent GFP+pS6+ neurons in compound-treated Tsc2-knockdown wells, DIV20, Biomol library screen, replica 2

Compound | T2 Zscore (Replica 1) | T2 Zscore (Replica 2) | other results
C[S+]([O-])c1ccc(-c2nc(-c3ccc(F)cc3)c(-c3ccncc3)[nH]2)cc1 (stereo not shown) [SB 203580] | 0.2744 | 0.03102 | 
CCCCCCCCC#CCC#CCC#CCCCC(=O)O [5,8,11-Eicosatriynoic acid] |  |  | T2 Zscore (Replica 1) [1]: 1.075; T2 Zscore (Replica 2) [2]: 0.7076
COc1cc2nc(N3CCN(C(=O)c4ccco4)CC3)nc(N)c2cc1OC [Prazocin] | 0.4809 | 0.9591 | 
CCCCCCCCCCCCC/C=C/[C@@H](O)[C@H](CO)NC(=O)CCCCCCC [C8 Ceramide] | 0.0936 | 1.008 | 
O=C(O)c1ccccc1Nc1ccccc1 [N-Phenylanthranilic acid] |  |  | T2 Zscore (Replica 1) [3]: 0.1388; T2 Zscore (Replica 2) [4]: −0.2022
CCCCC/C=C\C/C=C\C/C=C\CCCCCCC(=O)NCCO [Anandamide (20:3,n-6)] | 0.6092 | 2.082 | 
CC[C@@H]1/C=C(\C)C[C@H](C)C[C@H](OC)[C@H]2O[C@@](O)(C(=O)C(=O)N3CCCC[C@H]3C(=O)O[C@H](/C(C)=C/[C@@H]3CC[C@@H](O)[C@H](OC)C3)[C@H](C)[C@@H](O)CC1=O)[C@H](C)C[C@@H]2OC [Ascomycin (FK-520)] | 1.137 | 0.2159 | 
CCC(C)[C@H](NS(=O)(=O)c1cccc2ccccc12)C(=O)N[C@H](C=O)Cc1c[nH]c2ccccc12 (stereo partly drawn) [NapSul-Ile-Trp-CHO] | 0.2642 | −0.9931 | 
O=c1c(-c2ccc(O)cc2)coc2cc(O)cc(O)c12 [Genistein] |  |  | T2 Zscore (Replica 1) [3]: 0.2561; T2 Zscore (Replica 2) [4]: −0.1193
CCCCNc1cc(C(=O)O)cc(S(N)(=O)=O)c1Oc1ccccc1 [Bumetanide] |  |  | T2 Zscore (Replica 1) [1]: 1.388; T2 Zscore (Replica 2) [2]: 0.7833
CCCCCCCC/C=C\CCCCCCCC(=O)OCC(CO)OC(=O)CCCCCCC/C=C\CCCCCCCC (stereo not shown) [1,2-Dioleoyl-glycerol (18:1)] | −0.3636 | −0.5685 | 
CCCCCCCCCCCCC/C=C/[C@@H](O)[C@H](CO)NC(=O)CCCCCCCCCCCCCCC [C16 Ceramide] | 0.9862 | 0.3004 | 
CCCCCCCCCCCC=CCC=CCCCC(=O)O [Eicosa-5,8-dienoic acid (20:2 n-12)] | 0.878 | −0.2302 | 
CC(O)(C(=O)Nc1ccc(S(=O)(=O)c2ccccc2)cc1)C(F)(F)F (stereo not shown) [ZM226600] | −0.4912 | −0.7905 | 
CCCCC[C@H](O)/C=C/[C@H]1C(=O)C[C@H](O)[C@@H]1C/C=C\CCCC(=O)O [Prostaglandin D2] |  |  | T2 Zscore (Replica 1) [1]: 0.7735; T2 Zscore (Replica 2) [2]: 1.618
CC1(COc2ccc(CC3SC(=O)NC3=O)cc2)CCCCC1 (stereo not shown) [Ciglitazone] |  |  | T2 Zscore (Replica 1) [3]: 0.9838; T2 Zscore (Replica 2) [4]: 0.2294
1-Deoxymannojirimycin hydrochloride |  |  | T2 Zscore (Replica 1) [3]: −0.4582; T2 Zscore (Replica 2) [4]: 1.454
CCCCC/C=C\C[C@@H](/C=C/C=C\C/C=C\CCCC(=O)O)OO [12(S)-HPETE] | 0.5522 | 0.007363 | 
CCCCCC(O)CCCC(=O)O (stereo not shown) [5-Hydroxydecanoate] |  |  | T2 Zscore (Replica 1) [3]: 0.2181; T2 Zscore (Replica 2) [4]: 0.2414

Compound | T2 Zscore (Replica 1) | T2 Zscore (Replica 2) | other results
Monensin sodium | 0.557 | 0.8335 | 
CNC(=O)[C@H]1O[C@@H](n2cnc3c(NCc4cccc(I)c4)ncnc32)[C@H](O)[C@@H]1O [IB-MECA] |  |  | T2 Zscore (Replica 1) [3]: 1.327; T2 Zscore (Replica 2) [4]: −0.3278
Cc1ccc(C(=O)Cn2c3c(sc2=N)CCCC3)cc1 [Pifithrin-α] | 0.5599 | −0.2488 | 
CCCCC/C=C\C/C=C\C/C=C\CCCCC(=O)O [Gamma-linolenic acid (18:3 n-6)] | 0.5962 | −0.6758 | 
C[C@@]1(CO)[C@H](O)CC[C@@]2(C)[C@H]1CC[C@H]1C[C@@H]3C[C@@]12CC[C@]3(O)CO [Aphidicolin] |  |  | T2 Zscore (Replica 1) [1]: 1.019; T2 Zscore (Replica 2) [2]: 0.8185
COc1ccc(CCN(C)CCCC(C#N)(c2cc(OC)c(OC)c(OC)c2)C(C)C)cc1OC.Cl (stereo not shown) [Methoxyverapimil • HCl] | 0.5721 | 0.2991 | 
CCCC[C@@H](C=O)NC(=O)[C@H](CC(C)C)NC(=O)OCc1ccccc1 [Calpeptin] |  |  | T2 Zscore (Replica 1) [3]: 1.453; T2 Zscore (Replica 2) [4]: 0.01864
NC(=S)NCCC[C@H](N)C(=O)O [Thiocitrulline [L-Thiocitrulline]] | 0.5328 | 1.002 | 
CCCCC/C=C\C/C=C\C/C=C\C/C=C\CCCC(=O)NCC(=O)O [N-arachidonoylglycine] | −0.1329 | −0.3761 | 
Clc1cccc(Nc2nnc(-c3ccccc3)c3ccccc23)c1 [MY-5445] | −1.029 | −1.798 | 
CCCCC[C@H](O)CC[C@H]1[C@H](O)CC(=O)[C@@H]1CCCCCCC(=O)O [13,14-Dihydro-PGE1] | 0.6117 | 0.8897 | 
CC(=O)OCOC(=O)CN(CC(=O)OCOC(C)=O)c1ccccc1OCCOc1ccccc1N(CC(=O)OCOC(C)=O)CC(=O)OCOC(C)=O [BAPTA-AM] | −0.1651 | −0.6781 | 
CCCCCCCCCCCCCCC[C@@H](O)[C@@H](N)CO [Dihydrosphingosine] |  |  | T2 Zscore (Replica 1) [3]: 0.04572; T2 Zscore (Replica 2) [4]: 1.202
CCN1C[C@]2(COC)[C@H](O)C[C@H](OC)[C@@]34[C@@H]5C[C@@]6(O)[C@H](OC(=O)c7ccccc7)[C@@H]5[C@@](OC(C)=O)([C@@H]([C@H](OC)[C@H]23)[C@@H]14)[C@@H](O)[C@@H]6OC [Aconitine] | 1.129 | 1.17 | 
CC(COc1ccccc1)N(CCCl)Cc1ccccc1 (stereo not shown) [Phenoxybenzamine] | 0.3205 | 0.3192 | 
CCCCC[C@H](O)/C=C/[C@@H]1[C@@H](C/C=C\CCCC(=O)O)[C@H](O)C[C@H]1O [9b, 11a-Prostaglandin F2] | −0.2089 | −1.16 | 
O=C(NCCCCCCNC(=O)ON=C1CCCCC1)ON=C1CCCCC1 [RHC-80267] | 0.3508 | −0.1002 | 
C=C[C@@]1(C)CC(=O)[C@]2(O)[C@@]3(C)[C@@H](O)CCC(C)(C)[C@@H]3[C@H](O)[C@H](OC(C)=O)[C@@]2(C)O1 [Forskolin] |  |  | T2 Zscore (Replica 1) [1]: 1.606; T2 Zscore (Replica 2) [2]: 0.7505
COCCCCCCCCCCCC(=O)O [12-Methoxydodecanoic acid] |  |  | T2 Zscore (Replica 1) [3]: 0.6379; T2 Zscore (Replica 2) [4]: 0.5946

Compound | T2 Zscore (Replica 1) | T2 Zscore (Replica 2) | other results
CCCCCCCCCCCCCCCCOC[C@H](COP(=O)([O-])OCC[N+](C)(C)C)OC(=O)NC [C-PAF] | −0.1058 | −0.2275 | 
Cc1cccc(CCN2CCC(C(=O)c3ccc(NS(C)(=O)=O)cc3)CC2)n1 [E-4031] | 0.2341 | −0.9518 | 
CCCCCCCCCCCCC/C=C/[C@@H](O)[C@H](CO)NC(C)=O [C2 Ceramide] | 0.1437 | 0.8185 | 
CC(=O)C1=C(O)[C@@H]2[C@H]3c4c[nH]c5cccc(c45)C[C@H]3C(C)(C)N2C1=O [Cyclopiazonic acid] | 0.1164 | −0.5931 | 
CCCCCCCCCCCCCCCC(=O)N[C@H](CN1CCOCC1)[C@H](O)c1ccccc1 (racemic) [DL-PPMP] | 0.4795 | 0.4289 | 
CC(=O)N[C@@H](CSC/C=C(\C)CCC=C(C)C)C(=O)O [N-Acetyl-S-geranyl-L-cysteine] |  |  | T2 Zscore (Replica 1) [3]: 0.00411; T2 Zscore (Replica 2) [4]: 0.8748
CC(=O)O[C@H]1C(=O)[C@@]2(C)[C@H]([C@H](OC(=O)c3ccccc3)[C@]3(O)C[C@H](OC(=O)[C@H](O)[C@@H](NC(=O)c4ccccc4)c4ccccc4)C(C)=C1C3(C)C)[C@]1(OC(C)=O)CO[C@@H]1C[C@@H]2O [Taxol = Paclitaxel] |  |  | T2 Zscore (Replica 1) [1]: 1.488; T2 Zscore (Replica 2) [2]: 1.061
CS(=O)(=O)Nc1ccc([N+](=O)[O-])cc1OC1CCCCC1 [NS-398] |  |  | T2 Zscore (Replica 1) [3]: 1.289; T2 Zscore (Replica 2) [4]: −0.5141
CCCCCC1OC1C/C=C\C/C=C\C/C=C\CCCC(=O)O (racemic) | 1.341 | 1.193 | 
ICRF-193 | 0.02887 | 0.1794 | 
O=C1Nc2ccccc2/C1=C1/Nc2ccccc2/C1=N\O [ndirubin-3′-monoxime] | −0.09634 | −0.02118 | 
CN1C(C(=O)Nc2ccccn2)=C(O)c2ccccc2S1(=O)=O [Piroxicam] |  |  | T2 Zscore (Replica 1) [3]: 0.5738; T2 Zscore (Replica 2) [4]: −0.04834
NC1CCc2cc(O)c(O)cc2C1 (stereo not shown) [6,7-ADTN] | 0.4884 | −0.2632 | 
O=C1NC(=O)C(c2ccccc2[N+](=O)[O-])=C1Nc1ccc(O)c(Cl)c1 [SB-415286] | −0.3053 | 0.3429 | 
COCc1cc(O)c(O)c(O)c1-c1c(COC)cc(O)c(O)c1O [HBDDE] | 1.214 | −0.04207 | 
CC/C=C\C/C=C\C/C=C\C/C=C\C/C=C\C/C=C\CCC(=O)O [Docosahexaenoic acid(22:6 n-3)] | 1.067 | 0.7813 | 
COC(=O)C1=C(C)NC(C)=C([N+](=O)[O-])C1c1ccccc1C(F)(F)F (stereo not drawn) [R)-(+)-BAY K-8644] |  |  | T2 Zscore (Replica 1) [3]: 0.9402; T2 Zscore (Replica 2) [4]: 0.31
CCOC(=O)CN1C(=O)CC(C[C@@H](O)[C@@H]2C[C@@H](C)C[C@H](C)C2=O)CC1=O [Cycloheximide-N-ethylethanoate] | 0.08188 | 1.208 | 
